The target in one assay is T1, BRD4(BD2) (Homo sapiens, UniProt O60885).
T1 construct: tested on BD1 and BD2 domains (6×His‐tagged) of each BET protein
In words: TR-FRET displacement binding assay. As to conditions: AlexaFluor647 derivative of 1. A general note: TR-FRET usually uses a lanthanide donor and a delayed reading to cut background.

A further assay addresses T2, BRD4 BD1 (Homo sapiens, UniProt O60885).
T2 construct: His6 (cleaved yes); made in house; host or cells: E. coli BL21(DE3)-R3-pRARE2
Briefly: Isothermal titration calorimetry. Type of assay: binding. As to conditions: 15 °C; BRD4 BD1 titrated into 25 μM compound; read-out: KD (ITC). As for the experimental part: To quantify the affinity for BRD4 BD1 protein, isothermal titration calorimetry (ITC) was used.
Isothermal Titration Calorimetry. Experiments were carried out on an ITC200 titration microcalorimeter from MicroCal™, LLC (Northampton, MA) with a cell volume of 0.200 mL and a 40 μL microsyringe. All experiments were carried out at 15 °C while stirring at 750 rpm, in ITC buffer (20 mM HEPES pH 7.5 (at 25 °C), 150 mM NaCl). […] Following baseline equilibration an additional delay of 60 s was applied. All titrations were conducted using an initial injection of 0.3 μL followed by 38 identical injections of 1 μL with a duration of 2 s (per injection) and a spacing of 120 s between injections. The heat of dilution was determined by independent titrations (protein into buffer) and was subtracted from the experimental data. The collected data were implicated in the MicroCal™ Origin software supplied with the instrument to yield enthalpies of binding (ΔH) and binding constants (KB) as previously described by Wiseman and co‐workers.[34] Thermodynamic parameters were calculated (ΔG=ΔH−TΔS=−RTlnKB, where ΔG, ΔH and ΔS are the changes in free energy, enthalpy and entropy of binding respectively). A single binding site model was employed

Where “and” joins values, the source holds several entries; their conditions need not be identical. Equal entries are not always repeated.

Compound `Cc1cc(-c2nc3cc(S(=O)(=O)Nc4ccccn4)ccc3[nH]2)cc(C)c1O` [9 a, 2‐(4‐hydroxy‐3,5‐dimethylphenyl)‐N‐(pyridin‐2‐yl)‐1H‐benzo[d]imidazole‐6‐sulfonamide] displayed a concentration for half-maximal inhibition (IC50) on BRD4(BD2) of 2200 ± 1000 nM. The Kd at BRD4 BD1 is 70 nM and 70.4 nM.

In general, IC50 refers to the concentration needed to halve the response being measured. A higher IC50 goes with weaker potency. The Kd is the free concentration of one partner at which half of the binding sites on the other are occupied at equilibrium, for simple one-to-one binding.

Source of the values: publication PMC9826262, “Discovery of Benzo[d]imidazole‐6‐sulfonamides as Bromodomain and Extra‐Terminal Domain (BET) Inhibitors with Selectivity for the First Bromodomain” (Chemmedchem, 2022).
